Test results: patent publication US20040053896A1, “Pharmaceutically active compound” (priority 2000, published 2004)

Assay: Solubility in solvents
Type: physicochemical

- Solubility in water: soluble in water
Substance: cholyllysltamoxifen sulphate
